By UniProt entry, the sequences of proteins in these tests, tags left out. Where a name states a change or a piece, a line headed by the entry shows the natural chain unless it says otherwise.
UniProt P9WHH9: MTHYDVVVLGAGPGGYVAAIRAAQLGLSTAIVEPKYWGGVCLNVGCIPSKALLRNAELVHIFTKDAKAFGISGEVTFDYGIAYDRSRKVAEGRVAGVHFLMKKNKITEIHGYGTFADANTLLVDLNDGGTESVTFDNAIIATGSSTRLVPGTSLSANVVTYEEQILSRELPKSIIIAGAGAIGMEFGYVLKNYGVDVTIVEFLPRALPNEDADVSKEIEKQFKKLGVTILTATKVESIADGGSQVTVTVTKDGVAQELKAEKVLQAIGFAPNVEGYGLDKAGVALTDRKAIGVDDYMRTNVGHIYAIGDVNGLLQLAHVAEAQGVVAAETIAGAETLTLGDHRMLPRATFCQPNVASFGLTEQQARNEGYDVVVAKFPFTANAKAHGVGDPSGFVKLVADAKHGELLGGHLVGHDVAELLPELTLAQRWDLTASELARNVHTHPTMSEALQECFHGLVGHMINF

In publication PMC10739260, “Shape-Based Virtual Screening of a Billion-Compound Library Identifies Mycobacterial Lipoamide Dehydrogenase Inhibitors” (ACS Bio & Med Chem Au, 2023):

Biological target: T1, Mtb Lpd (Mycobacterium tuberculosis, UniProt P9WHH9)
T1 construct: made in house
Assay: Lpd enzyme assay (spectrophotometric, DTNB, lipoamide, NADH)
Assay type: biochemical
Protocol: The Lpd enzyme assay was performed at a CRO with a previously reported protocol.[9],[11] Briefly, the Lpd activity was measured by a spectrophotometric assay with DTNB, lipoamide, and NADH. Final concentrations of components in the reaction mixture were as follows: 125 μM NADH, 125 μM DTNB, 40 μM NAD+, 75 μM lipoamide in 25 mM potassium phosphate, and 1 mM EDTA pH 7.0. Compounds were tested initially at 10 μM. Compounds showing significant inhibition at 10 μM were tested in dose–response from 100 to 0.005 μM by serial dilutions. Curves were fit, and IC50 values were calculated using Prism dose–response inhibition analysis (four-parameter fit).

CC(=O)Nc1cccc(NC(=O)CN(C)S(=O)(=O)c2cc(C)cc(C(F)F)c2)c1 [1 (TDI-13537)]
IC50: 160 nM

Cc1cc(S(=O)(=O)N2CCC[C@H]2C(=O)Nc2ccn(C)c(=O)c2)c2[nH]ncc2c1 [TDI-011002]
IC50: 51 nM
